Assay results reported in patent publication US4765972A (priority 1986, dated 1988).

Experiments:
Format in all cases: binding
[1] = system: 54.3 kDa polypeptide (tubulin subunit); test: Photolabelling of calf brain homogenate with ^3 H-NABV, 54.3 kDa polypeptide
Protocol: (§1) Tissue homogenate high speed supernatant and pellet fractions were obtained by homogenizing 1 gram of calf brain in 10 ml volumes of 0.05 M potassium phosphate buffer, pH 7.4, for one minute with a Model PCU Polytron homogenizer with a PT-10-ST probe operated at 50% maximum power (Brinkmann Instruments, Westbury, NY). The brain tissue homogenate was collected after filtering through one layer of cheesecloth. Brain tissue high speed supernatant fractions were prepared by centrifuging the homogenates at 100,000×g for 60 minutes at 4° C. The resulting pellet was washed twice with five times its original volume of buffer, and recentrifuged as described. Protein concentrations and supernatant fractions were stored in small aliquots in liquid nitrogen and thawed only once.
(§2) The standard photolabelling mixture used contained 50 nM ^3 H-NABV (50.6 Ci/mmol), 4% dimethylsulfoxide, […] potassium phosphate buffer, pH 7.0, and 2 mg/ml of tissue homogenate or high speed pellet or supernatant fractions in a final volume of 0.05 ml in polyvinylchloride V-microtiter wells (Dynatech Labs, Inc., Alexandria, VA) in a 25° C. water bath. Photolabelling mixtures were incubated for 15 minutes at 25° C. before photolysis. Photoactivation was performed for 10-20 minutes with a UV light equipped with two 15 W self-filtering 302 nm lamps (Model xx-15, Ultra-Violet Products, Inc., San Gabriel, CA), placed 3.4 cm above the photolabelling mixture. […]
(§3) Electrophoresis was performed as described by Laemmli in Nature (Lond.) 227, 680-685 (1970) with a linear polyacrylamide gradient from 9.7% acrylamide, 0.26% bis-acrylamide and 10% glycerol, to 16.6% acrylamide, 0.44% bis-acrylamide, and 17% glycerol using a Bio-Rad slab gel apparatus (Model 220, Richmond, CA) at 8 mA/gel for sixteen hours. […] Each slice was incubated with 0.3 ml 30% H2 O2 in a closed scintillation vial at 100° C. for one hour to solubilize the gel slice, with radioactivity subsequently quantitated. […] The radioactivity of photolabelled components was quantitated in triplicate by adding the dpm in each 1 mm gel slice through the radioactive peak. […]

21.5 kDa polypeptide = test: Photolabelling of calf brain homogenate with ^3 H-NABV, 21.5 kDa polypeptide
Protocol: as §1, §2, §3

[2] = system: 14, 26, and 44 kDa polypeptides; test: Photolabelling of calf brain homogenate with ^3 H-NABV, weakly labelled polypeptides; details: 20 micromoles of vinblastine
Protocol: as §1, with “Protein concentrations and supernatant fractions were stored in small aliquots in liquid nitrogen and thawed only once.” left out
as §3

[3] = 0.44 micromoles ^3 H-NABV, increasing concentrations of vinblastine
[4] = slope of replot of competition data
[5] = 0.44 micromoles ^3 H-NABV, competitor 1-22 micromoles

Row | SMILES | limiting minimum of labelling, % of the total photolabelling in the absence of competitor [1, 3] | relative association constant Kr =Ka vinblastine/Ka NABV [1, 4] | limiting minimum of labelling, % of the total photolabelling in the absence of competitor (21.5 kDa polypeptide; [3]) | relative association constant Kr =Ka vinblastine/Ka NABV (21.5 kDa polypeptide; [4]) | decrease of photolabelling [2] | effect of increasing concentrations of competitor on photolabelling [1, 5] | effect of increasing concentrations of competitor on photolabelling (21.5 kDa polypeptide; [5])
1 | CC[C@]1(O)C[C@@H]2CN(CCc3c([nH]c4ccccc34)[C@@](C(=O)OC)(c3cc4c(cc3OC)N(C)[C@H]3[C@@](O)(C(=O)OC)[C@H](OC(C)=O)[C@]5(CC)C=CCN6CC[C@]43[C@@H]65)C2)C1 [vinblastine] | about 50% | 0.86 | about 50% | 1.4 | approximately 40% |  | 
2 | CC[C@]1(O)C[C@H]2CN(CCc3c([nH]c4ccccc34)[C@@](C(=O)OC)(c3cc4c(cc3OC)N(C=O)[C@H]3[C@@](O)(C(=O)OC)[C@H](OC(C)=O)[C@]5(CC)C=CCN6CC[C@]43[C@@H]65)C2)C1 [vincristine] |  |  |  |  |  | significantly decreased | significantly decreased
